Measurements from patent US20140274984A1, “ACID ADDITION SALTS OF 5ALPHA-HYDROXY-6BETA-[2-(1H-IMIDAZOL-4-YL)ETHYLAMINO]CHOLESTAN-3BETA-OL” (INSERM (INSTITUT NATIONAL DE LA SANTÉ ET DE LA RECHERE …, priority 2011, published 2014).

Assay: Water solubility at room temperature (shake 5 hours, filtered supernatant, HPLC with calibration curve)
Format: physicochemical
Details: shaken 5 hours
Method: An adequate amount of each sample was taken. Water (50% v/v) was added to each sample, and the mixture was shaken at room temperature for 5 hours. The supernatant was filtered through a filter, and diluted with a mixed solution of water 0.1% TFA/acetonitrile as necessary to give a sample solution. The concentration (mg/ml) of the sample solution was measured by high performance liquid chromatography (HPLC) with a calibration curve method, and taken as the solubility in water at room temperature.
HPLC Analysis Conditions:
HPLC purifications and analyses were carried out using an LC200 series Perkin Elmer apparatus, and diode array UV detector, using an Ultrasep C18 RP 100 column from Bischoff Chromatography.

“5alpha-Hydroxy-6beta-[2-(1H-imidazol-4-yl)ethylamino]cholestan-3beta-ol, malonate [Example 9]” and “5alpha-Hydroxy-6beta-[2-(1H-imidazol-4-yl)ethylamino]cholestan-3beta-ol, L-tartrate [Example 2]” are within 1.5-fold of each other in “Solubility in water at room temperature” value: 55 mg/mL for the first, 42 mg/mL for the second.

Going from “5alpha-Hydroxy-6beta-[2-(1H-imidazol-4-yl)ethylamino]cholestan-3beta-ol, benzene sulfonate [Example 6]” to “5alpha-Hydroxy-6beta-[2-(1H-imidazol-4-yl)ethylamino]cholestan-3beta-ol, L-Lactate [Example 16]”, the “Solubility in water at room temperature” value rises from 31.5 mg/mL to 65 mg/mL (2.1-fold).
